Chains of the proteins cited; added tags and fusions are not shown. Residues count along the entry.
UniProt P47871, 26-477: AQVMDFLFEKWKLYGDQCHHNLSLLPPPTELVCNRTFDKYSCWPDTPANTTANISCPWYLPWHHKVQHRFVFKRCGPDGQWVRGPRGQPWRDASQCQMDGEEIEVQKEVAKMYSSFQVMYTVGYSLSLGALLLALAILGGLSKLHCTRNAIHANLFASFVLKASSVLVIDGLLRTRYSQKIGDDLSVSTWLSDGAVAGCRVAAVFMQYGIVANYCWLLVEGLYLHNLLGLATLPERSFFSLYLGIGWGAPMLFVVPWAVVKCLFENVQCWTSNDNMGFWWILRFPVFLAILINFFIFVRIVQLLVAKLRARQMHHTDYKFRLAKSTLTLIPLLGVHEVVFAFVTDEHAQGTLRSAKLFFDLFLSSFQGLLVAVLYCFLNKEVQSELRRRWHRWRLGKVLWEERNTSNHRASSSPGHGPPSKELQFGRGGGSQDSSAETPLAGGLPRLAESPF

In patent US10538567B2, “Compounds as peptidic trigonal GLP1/glucagon/GIP receptor agonists” (priority 2016, dated 2020):

Biological target: T1, human glucagon receptor (Homo sapiens, UniProt P47871)
T1 construct: expressed in transfected cells; host or cells: HEK-293
Experiment: cAMP response (HTRF) of HEK-293 cells stably expressing human glucagon receptor
Format: cell-based
Conditions: Table 9 comparison testing; read-out: EC50 hGlucagon-R
Procedure: cAMP content of cells was determined using a kit from Cisbio Corp. (cat. no. 62AM4PEJ) based on HTRF (Homogenous Time Resolved Fluorescence). For preparation, cells were split into T175 culture flasks and grown overnight to near confluency in medium (DMEM/10% FBS). Medium was then removed and cells washed with PBS lacking calcium and magnesium, followed by proteinase treatment with accutase (Sigma-Aldrich cat. no. A6964). Detached cells were washed and resuspended in assay buffer (1×HBSS; 20 mM HEPES, 0.1% BSA, 2 mM IBMX) and cellular density determined. They were then diluted to 400000 cells/ml and 25 μl-aliquots dispensed into the wells of 96-well plates. For measurement, 25 μl of test compound in assay buffer was added to the wells, followed by incubation for 30 minutes at room temperature.
Potencies of peptidic compounds at the GLP-1, glucagon and GIP receptors were determined by exposing cells expressing human glucagon receptor (hGlucagon R), human GIP receptor (hGIP-R) or human GLP-1 receptor (hGLP-1 R) to the listed compounds at increasing concentrations and measuring the formed cAMP as described in Methods.

For CCCCCCCCCCCCCCCCCC(=O)N[C@@H](CCC(=O)NCCCC[C@H](NC(=O)[C@H](CCC(N)=O)NC(=O)[C@H](CCCCN)NC(=O)[C@H](CO)NC(=O)[C@H](CC(C)C)NC(=O)[C@H](CC(=O)O)NC(=O)[C@H](CO)NC(=O)[C@@H](NC(=O)[C@H](Cc1ccccc1)NC(=O)[C@@H](NC(=O)CNC(=O)[C@H](CCC(N)=O)NC(=O)C(C)(C)NC(=O)[C@@H](N)Cc1c[nH]cn1)[C@@H](C)O)[C@@H](C)O)C(=O)N[C@@H](CC(=O)O)C(=O)N[C@@H](CCC(=O)O)C(=O)N[C@@H](CCC(N)=O)C(=O)N[C@@H](CCCNC(=N)N)C(=O)N[C@@H](C)C(=O)N[C@@H](CCCCN)C(=O)N[C@@H](CCC(=O)O)C(=O)N[C@@H](Cc1ccccc1)C(=O)N[C@H](C(=O)N[C@@H](CCC(=O)O)C(=O)N[C@@H](Cc1c[nH]c2ccccc12)C(=O)N[C@@H](CC(C)C)C(=O)N[C@@H](CCCCN)C(=O)N[C@@H](C)C(=O)NCC(=O)NCC(=O)N1CCC[C@H]1C(=O)N[C@@H](CO)C(=O)N[C@@H](CO)C(=O)NCC(=O)N[C@@H](C)C(=O)N1CCC[C@H]1C(=O)N1CCC[C@H]1C(=O)N1CCC[C@H]1C(=O)N[C@@H](CO)C(N)=O)[C@@H](C)CC)C(=O)O [SEQ ID NO: 28, H-Aib-Q-G-T-F-T-S-D-L-S-K-Q-K[gGlu-Stea]-DEQRAKEFIEWLKAGGPSSGAPPPS-NH2, reference compound], the EC50 was 1.9 pM.
